Data reported in ChEMBL document CHEMBL3638566, “Benzenesulfonamide compounds, method for synthesizing same, and use thereof in medicine as well as in cosmetics” (2014).

Sequences of proteins named here, by UniProt entry; tags and fusion partners are left off. A change or cut given only in a name is not applied to a line headed by its entry.
UniProt P78536: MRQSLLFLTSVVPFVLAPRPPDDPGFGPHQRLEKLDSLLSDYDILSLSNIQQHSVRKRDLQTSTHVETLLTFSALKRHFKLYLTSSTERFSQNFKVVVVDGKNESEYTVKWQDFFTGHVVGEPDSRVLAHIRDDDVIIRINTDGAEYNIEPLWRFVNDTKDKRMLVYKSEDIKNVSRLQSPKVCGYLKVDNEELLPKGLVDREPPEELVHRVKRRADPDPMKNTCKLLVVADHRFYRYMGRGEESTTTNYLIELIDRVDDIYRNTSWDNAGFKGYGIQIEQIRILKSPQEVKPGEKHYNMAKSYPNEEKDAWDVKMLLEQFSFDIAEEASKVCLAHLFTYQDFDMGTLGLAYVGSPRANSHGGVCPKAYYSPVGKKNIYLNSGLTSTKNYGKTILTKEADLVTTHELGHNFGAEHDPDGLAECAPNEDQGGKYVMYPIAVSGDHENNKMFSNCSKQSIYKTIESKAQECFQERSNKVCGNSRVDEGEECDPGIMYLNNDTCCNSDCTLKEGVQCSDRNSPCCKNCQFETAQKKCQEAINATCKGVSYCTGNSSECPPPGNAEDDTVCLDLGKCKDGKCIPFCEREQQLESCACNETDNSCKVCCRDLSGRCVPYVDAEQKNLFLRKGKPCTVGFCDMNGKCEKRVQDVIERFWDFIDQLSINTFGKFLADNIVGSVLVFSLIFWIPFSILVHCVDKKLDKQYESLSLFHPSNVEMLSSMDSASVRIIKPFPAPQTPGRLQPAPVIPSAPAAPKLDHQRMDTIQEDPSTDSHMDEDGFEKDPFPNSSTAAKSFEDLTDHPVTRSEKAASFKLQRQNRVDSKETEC

Target: Disintegrin and metalloproteinase domain-containing protein 17 (Homo sapiens, UniProt P78536)
Assay: The substrate is used at 40 μM.

IC50: 87 nM
SMILES: CC#CCOc1ccc(S(=O)(=O)N(C)CC(C(=O)NO)N2CCN(S(C)(=O)=O)CC2)cc1 (stereo unspecified)
